This is an account of results in the supplement of paper PMC9942566.

± gives the standard deviation of the averaged measurements. Only a part is listed here, and it is no random draw.

In this test the test system is Serratia marcescens K904 PosmB-luxCDABE reporter (pMQ747). In words: PosmB-lux reporter fold induction (RLU/OD600 relative to no-compound control), highest over Biolog concentrations; higher = stronger reporter activation. To be noted: Biolog plate: PM18; well positions: D5-8; ΔrcsB mutant CMS5177; 4 h. Here is the method:
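Serratia marcescens K904 (wild type) or its isogenic ΔrcsB mutant, carrying the Rcs-dependent PosmB-luxCDABE reporter plasmid pMQ747, was grown in LB at OD600 0.1 in Biolog Phenotype MicroArray plates PM11-20 for 4 h at 30-32°C. Each compound is present at 3-4 proprietary concentrations (not stated); per the Fig. S1 legend the value given is the highest fold over those wells. Three independent trials.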
As for `[O-][Br+2]([O-])O` [sodium bromate], the “PosmB-lux reporter fold induction” value was 0.962 ± 0.62.
